Earlier results as cited in publication PMC9103705, “Effects of Drugs Formerly Proposed for COVID-19 Treatment on Connexin43 Hemichannels” (International Journal of Molecular Sciences, 2022).

Details: retrieved from the literature; cited from earlier work

CCN(CCO)CCCC(C)Nc1ccnc2cc(Cl)ccc12 (stereo not shown) [Hydroxychloroquine (sulphate), Hydroxychloroquine]
Cmax (total peak plasma concentration at therapeutic dose): 1.36 [27] µM
